ChEMBL document CHEMBL3813596, “Conformational Constraint of the Glycerol Moiety of Lysophosphatidylserine Affords Compounds with Receptor Subtype Selectivity” (J Med Chem, 2016)
The source made the active and inactive calls. The calls are words filed in the database; no cut-off is given here.

The chains behind the UniProt entries cited, without tags or fusion partners. Where a name states a change or a piece, a line headed by the entry shows the natural chain unless it says otherwise.
UniProt Q9R1K6: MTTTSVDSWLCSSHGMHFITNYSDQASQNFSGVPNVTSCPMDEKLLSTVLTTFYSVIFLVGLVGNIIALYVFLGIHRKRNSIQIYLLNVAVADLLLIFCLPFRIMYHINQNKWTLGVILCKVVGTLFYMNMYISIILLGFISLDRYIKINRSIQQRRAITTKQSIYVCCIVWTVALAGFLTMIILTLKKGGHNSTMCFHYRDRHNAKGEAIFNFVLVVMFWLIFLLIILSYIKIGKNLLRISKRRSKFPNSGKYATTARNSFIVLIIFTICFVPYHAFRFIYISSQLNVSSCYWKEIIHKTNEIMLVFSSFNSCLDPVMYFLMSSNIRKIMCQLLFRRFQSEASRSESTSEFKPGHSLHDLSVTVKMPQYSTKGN
UniProt Q8BFU7: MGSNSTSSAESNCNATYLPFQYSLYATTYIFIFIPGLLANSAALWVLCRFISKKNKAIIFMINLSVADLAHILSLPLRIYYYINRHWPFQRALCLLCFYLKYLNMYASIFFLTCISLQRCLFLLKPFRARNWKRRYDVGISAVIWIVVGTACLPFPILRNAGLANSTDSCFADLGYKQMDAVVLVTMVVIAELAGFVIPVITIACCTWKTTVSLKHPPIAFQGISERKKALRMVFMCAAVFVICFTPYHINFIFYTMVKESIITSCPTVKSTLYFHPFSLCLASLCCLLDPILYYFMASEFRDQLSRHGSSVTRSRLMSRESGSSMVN

How the values were obtained:
Assay type in all cases: cell-based
Conditions in all cases: HEK293-A
[1] = target: Probable G-protein coupled receptor 34 (Mus musculus) (UniProt Q9R1K6); assay: Agonist activity at mouse GPR34 expressed in HEK293A cells cotransfected with chimeric Galphaq/il after 1.5 hrs by alkaline phosphatase tagged-TGFalpha shedding assay
[2] = target: Putative P2Y purinoceptor 10 (Mus musculus) (UniProt Q8BFU7); assay: Agonist activity at mouse P2Y10 receptor expressed in HEK293A cells after 1.5 hrs by alkaline phosphatase tagged-TGFalpha shedding assay
Procedure, shortened: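 Transient transfection of HEK293 cells with AP-TGFα plus the mouse receptor. For GPR34, HEK293A cells also got a chimeric Gαq/i1 subunit; P2Y10 was run in HEK293A and GPR174 in HEK293FT. Cells were seeded 24 h post-transfection in 5 mM HEPES (pH 7.4) HBSS onto serial 3.2-fold compound dilutions (top final 32 μM or lower, limited by mock-cell signal). Ki16425 was present, and incubation ran 1.5 h.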

[3] = target: Probable G-protein coupled receptor 34 (Mus musculus) (UniProt Q9R1K6); assay: Intrinsic activity at mouse GPR34 expressed in HEK293A cells cotransfected with chimeric Galphaq/il after 1.5 hrs by alkaline phosphatase tagged-TGFalpha shedding assay relative to O-(Hydroxy(((2R,3R)-2-(((3-(2-((3-phenoxybenzyl)oxy)phenyl)-propanoyl)oxy)methyl)tetrahydro-2H-pyran-3-yl)oxy)phosphoryl)-L-serine
Procedure, shortened: (§1)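 RIA is Emax/EC50 from the AP-TGFα shedding concentration–response fits, expressed relative to a reference agonist, whose RIA is 1 by definition. It is a dimensionless estimate of agonist activity. The GPR34 assay used HEK293A cells with chimeric Gαq/i1 and a 1.5 h incubation; the P2Y10 assay used HEK293A cells.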

[4] = target: Putative P2Y purinoceptor 10 (Mus musculus) (UniProt Q8BFU7); assay: Intrinsic activity at mouse P2Y10 receptor expressed in HEK293A cells after 1.5 hrs by alkaline phosphatase tagged-TGFalpha shedding assay relative to diF-C3-ph-o-O-C11; procedure, shortened: as §1

Row | SMILES | Emax [1] | Emax [2] | Intrinsic activity [3] | Intrinsic activity [4] | pEC50 [2] | pEC50 [1]
1 | CCCCCCCC/C=C\CCCCCCCC(=O)O[C@@H]1CCCO[C@@H]1COP(=O)(O)OC[C@H](N)C(=O)O | inactive | inactive | inactive | inactive |  | 
2 | CCCCCCCC/C=C\CCCCCCCC(=O)O[C@@H]1C=CCO[C@@H]1COP(=O)(O)OC[C@H](N)C(=O)O | 3.8% |  | 0.089 |  |  | 
3 | CCCCCCCC/C=C\CCCCCCCC(=O)OC[C@@H]1OCCC[C@@H]1OP(=O)(O)OC[C@@H](N)C(=O)O (single isomer, unassigned) |  | < 3% |  | inactive | inactive | 
4 | CCCCCCCCCCCOc1ccccc1CCC(=O)OCc1cccc(OP(=O)(O)OC[C@H](N)C(=O)O)c1 | inactive |  | inactive |  |  | inactive
5 | N[C@@H](COP(=O)(O)O[C@@H]1CCCO[C@@H]1COC(=O)CCc1ccc(OCc2cccc(Oc3ccccc3)c2)cc1)C(=O)O | inactive |  | inactive |  |  | inactive
6 | CCCCCCCC/C=C\CCCCCCCC(=O)O[C@H]1C=CCO[C@@H]1COP(=O)(O)OC[C@H](N)C(=O)O | inactive |  | inactive |  |  | inactive
7 | CCCCCCCC/C=C\CCCCCCCC(=O)O[C@H]1CCCO[C@@H]1COP(=O)(O)OC[C@H](N)C(=O)O | inactive | inactive | inactive | inactive | inactive | inactive
8 | CCCCCCCCCCCOc1ccccc1CCC(=O)OCc1ccc(OP(=O)(O)OC[C@H](N)C(=O)O)cc1 | inactive |  | inactive |  |  | inactive
9 | CCCCCCCC/C=C\CCCCCCCC(=O)OC[C@@H]1OCCC[C@H]1OP(=O)(O)OC[C@@H](N)C(=O)O (single isomer, unassigned) |  | 3.9% |  | 0.0014 |  | 
10 | CCCCCCCCCCCOc1ccccc1CCC(=O)OC[C@H]1OCC=C[C@@H]1OP(=O)(O)OC[C@H](N)C(=O)O | < 3% |  | inactive |  |  | inactive
11 | Cc1ccc(Oc2cccc(COc3ccccc3CCC(=O)O[C@@H]3CCCO[C@@H]3COP(=O)(O)OC[C@H](N)C(=O)O)c2)cc1 |  | inactive |  | inactive | inactive | 
12 | N[C@@H](COP(=O)(O)OC[C@H]1OCCC[C@H]1OC(=O)CCc1cccc(OCc2cccc(Oc3ccccc3)c2)c1)C(=O)O | inactive |  | inactive |  |  | inactive
13 | CCCCCCCCCCCOc1ccccc1CCC(=O)OC[C@H]1OCC=C[C@H]1OP(=O)(O)OC[C@H](N)C(=O)O | 5% |  | 0.086 |  |  | 
